The numbers were not newly measured in US9522128B2 (FUNDACION PARA LA INVESTIGACION BIOMEDICA DEL HOSPITAL …, priority 2008, dated 2016), which cites them from elsewhere.

For the data set the following is noted: 7 or close to 7; cited from earlier work.

Take Cyclosporin A: the “nature (neutral, anionic, apolar) at physiological pH” value is “apolar”.
